Experimental data taken from ChEMBL document CHEMBL2375349, “Discovery of subtype selective muscarinic receptor antagonists as alternatives to atropine using in silico pharmacophore modeling and virtual screening methods” (2013).

What was measured:
[1] = target: T1, Muscarinic acetylcholine receptor M1 and M3 (Homo sapiens) (UniProt P20309+P11229); test: Selectivity ratio of Ki for human muscarinic M3 receptor to Ki for human muscarinic M1 receptor
[2] = target: T1, Muscarinic acetylcholine receptor M1 and M3 (Homo sapiens); test: Selectivity ratio of Ki for human muscarinic M1 receptor to Ki for human muscarinic M3 receptor

Row | SMILES | Ratio Ki [1] | Ratio Ki [2]
1 | CCN(CC)CCOC(=O)C(O)(c1cccs1)C1CCCCC1 (centres undefined) | 4.95 | 0.202
2 | CCN(CC)CCOC(=O)C(O)(c1ccccc1)c1c(C)cccc1C (centres undefined) | 1.44 | 0.693
